Measured values as given in US10093674B2, “Supramolecular nanofibers and hydrogels based on nucleic acids functionalized with nucleobases” (Brandeis University, priority 2011, dated 2018).

Conditions: hydrogel, 3.0 wt %

Point of comparison: Cytosine-Phe-Phe-Glucosamine [2C′], critical strain 0.27%. Against it:
- Thymine-Phe-Phe-glucosamine [2T′] — higher, 0.31%
- Thymine-Phe-glucosamine [1T′] — higher, 0.5%
- Guanine-Phe-glucosamine [1G′] — higher, 0.28%
- Guanine-Phe-Phe-glucosamine [2G′] — lower, 0.18%
- Adenine-Phe-Phe-glucosamine [2A′] — higher, 0.39%
- Adenine-Phe-glucosamine [1A′] — lower, 0.23%

Point of comparison: Guanine-Phe-Phe-glucosamine [2G′], storage modulus 101 KPa. Against it:
- Thymine-Phe-Phe-glucosamine [2T′] — lower, 32 KPa
- Thymine-Phe-glucosamine [1T′] — lower, 34 KPa
- Guanine-Phe-glucosamine [1G′] — higher, 139 KPa
- Cytosine-Phe-Phe-Glucosamine [2C′] — higher, 220 KPa
- Adenine-Phe-Phe-glucosamine [2A′] — lower, 0.37 KPa
- Adenine-Phe-glucosamine [1A′] — lower, 6 KPa

Conditions: hydrogel, 2.0 wt %

Point of comparison: Cytosine-Phe-Phe [Compound 1C], storage modulus 26 Pa. Against it:
- Adenine-Phe-Phe [Compound 1A] — higher, 8090 Pa
- Thymine-Phe-Phe [Compound 1T] — higher, 6346 Pa
- Guanine-Phe-Phe [Compound 1G] — higher, 12613 Pa
